Data published in publication PMC11613347, “A Glucose-Responsive Glucagon-Micelle for the Prevention of Hypoglycemia” (ACS Central Science, 2024).

How the values were obtained:
[1] = conjugate versus unconjugated polymer, variable-temperature UV-Vis
[2] = 37 °C

**Q.** With “PEG-b-P(NIPAM-stat-2-APBA)-GCG [Polymer P4-GCG]” as the substance, how does the “cloud point lower than that of the polymer alone” value [1] read?
**A.** The value was 2.5 °C.

**Q.** What about the “self-assembly state by DLS” value ([2]; absence of glucose) of the same substance?
**A.** Its value is “self-assembled into micelles”.

**Q.** And the “hydrodynamic diameter (Dh) of micelles” value ([2]; DLS, without any glucose addition)?
**A.** Its value is 119.6 nm.
